{
  "source": "patent US4968672A",
  "about": "“Adenosine receptor prodrugs” (priority 1987, dated 1990)",
  "key": {"[1]": {"test_system": "acute renal failure", "assay": "acute renal failure models (ischemia, glycerol injection)", "type": "in vivo", "details": "compared with theophylline and 8-phenyltheophylline"}, "[2]": {"test_system": "adenosine A1-receptors", "details": "0.1 mg/kg NECA and 0.1 to 1.0 mg/kg XAC; cited from earlier work"}, "[3]": {"test_system": "adenosine receptors (kidney and non-renal vasculature)", "assay": "blood pressure and sodium excretion in CHA-treated rats (Table 4)", "type": "in vivo, rat"}},
  "data": [
    {"smiles": "CCCn1c(=O)c2[nH]c(-c3ccc(OCC(=O)NCCN)cc3)nc2n(CCC)c1=O", "note": "[Compound 1a]", "values": [
      {"measurement": "effect in acute renal failure", "setting": "[1]", "value": "act in the same manner except for considerably greater potency and selectivity"},
      {"measurement": "heart rate and blood pressure with NECA", "setting": "[2]", "value": "heart rate remained relatively constant whereas blood pressure diminished to a degree comparable to the absence of XAC"},
      {"measurement": "reversal of hypotensive effect of adenosine agonists (non-renal vasculature)", "setting": "[3]", "value": "reversed by XAC"}
    ]}
  ]
}
